Measured values: ChEMBL document CHEMBL1126087, “(E)-1,3-dialkyl-7-methyl-8-(3,4,5-trimethoxystyryl)xanthines: potent and selective adenosine A2 antagonists” (J Med Chem, 1992)
pKi: −log10 of the molar value.

Amino acid sequences for entries named in this document (tags omitted).
UniProt P47745, whole entry: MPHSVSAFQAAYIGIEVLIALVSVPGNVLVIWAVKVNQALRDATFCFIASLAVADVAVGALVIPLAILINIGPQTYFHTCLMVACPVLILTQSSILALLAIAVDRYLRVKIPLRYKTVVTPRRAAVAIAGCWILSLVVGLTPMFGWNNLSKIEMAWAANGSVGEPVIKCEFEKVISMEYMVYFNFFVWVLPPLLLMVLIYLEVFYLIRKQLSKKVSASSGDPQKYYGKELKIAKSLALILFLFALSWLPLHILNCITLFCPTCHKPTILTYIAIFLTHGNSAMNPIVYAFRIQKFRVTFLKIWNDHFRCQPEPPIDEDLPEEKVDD

Target: Adenosine receptor A1 (Cavia porcellus, UniProt P47745)

CCCn1c(=O)c2nc(/C=C/c3cc(OC)c(OC)c(OC)c3)[nH]c2n(CCC)c1=O
pKi: 6.07
